{"sequences": {"note": "Protein sequences, listed by entry. Tags and fused reporters are not part of them. Residues count along the entry.", "UniProt P37231, 231-505": "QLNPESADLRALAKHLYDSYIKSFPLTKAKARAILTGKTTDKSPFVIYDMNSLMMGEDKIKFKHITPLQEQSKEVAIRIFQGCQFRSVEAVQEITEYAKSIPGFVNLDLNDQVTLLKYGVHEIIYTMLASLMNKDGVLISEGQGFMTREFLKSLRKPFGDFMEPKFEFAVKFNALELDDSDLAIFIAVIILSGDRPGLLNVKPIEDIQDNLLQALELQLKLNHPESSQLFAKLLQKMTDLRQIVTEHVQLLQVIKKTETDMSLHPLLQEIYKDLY", "UniProt P37231, 238-503 limits assumed, stated change not applied": "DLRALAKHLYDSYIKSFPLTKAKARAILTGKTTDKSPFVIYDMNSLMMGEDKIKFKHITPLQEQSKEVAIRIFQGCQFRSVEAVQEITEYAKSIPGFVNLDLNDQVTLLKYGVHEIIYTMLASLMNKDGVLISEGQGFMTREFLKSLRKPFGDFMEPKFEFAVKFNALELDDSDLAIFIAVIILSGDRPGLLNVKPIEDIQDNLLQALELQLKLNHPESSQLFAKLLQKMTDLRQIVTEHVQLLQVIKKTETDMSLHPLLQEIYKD"}, "source": "paper PMC9102038", "about": "(International Journal of Molecular Sciences, 2022)", "key": {"[1]": {"target": "T1, human PPARγ-LBD (Homo sapiens, UniProt P37231)", "assay": "TR-FRET SRC1 coactivator peptide recruitment assay, PPARγ-LBD", "details": "read-out: EC50, SRC1 recruitment to PPARγ-LBD, cell-free"}, "[2]": {"target": "T1, human PPARγ-LBD", "assay": "TR-FRET PGC1α coactivator peptide recruitment assay, PPARγ-LBD", "details": "read-out: EC50, PGC1α recruitment to PPARγ-LBD, cell-free"}, "[3]": {"target": "GAL4–human PPARγ-LBD chimera (Homo sapiens, UniProt P37231)", "assay": "GAL4–hPPARγ-LBD dual luciferase transactivation assay in COS-7 cells", "details": "read-out: EC50, PPARγ-LBD-mediated transactivation, 10 h treatment"}}, "data": [{"substance": "GW1929", "values": [{"measurement": "EC50", "setting": "[1]", "result": 75.6, "unit": "nM"}, {"measurement": "EC50", "setting": "[2]", "result": 32.2, "unit": "nM"}, {"measurement": "EC50", "setting": "[3]", "result": 18.3, "unit": "nM"}]}]}
